# Target: SERT (Rattus norvegicus, UniProt P31652)
# The chains behind the UniProt entries cited, without tags or fusion partners.
# UniProt P31652, whole entry: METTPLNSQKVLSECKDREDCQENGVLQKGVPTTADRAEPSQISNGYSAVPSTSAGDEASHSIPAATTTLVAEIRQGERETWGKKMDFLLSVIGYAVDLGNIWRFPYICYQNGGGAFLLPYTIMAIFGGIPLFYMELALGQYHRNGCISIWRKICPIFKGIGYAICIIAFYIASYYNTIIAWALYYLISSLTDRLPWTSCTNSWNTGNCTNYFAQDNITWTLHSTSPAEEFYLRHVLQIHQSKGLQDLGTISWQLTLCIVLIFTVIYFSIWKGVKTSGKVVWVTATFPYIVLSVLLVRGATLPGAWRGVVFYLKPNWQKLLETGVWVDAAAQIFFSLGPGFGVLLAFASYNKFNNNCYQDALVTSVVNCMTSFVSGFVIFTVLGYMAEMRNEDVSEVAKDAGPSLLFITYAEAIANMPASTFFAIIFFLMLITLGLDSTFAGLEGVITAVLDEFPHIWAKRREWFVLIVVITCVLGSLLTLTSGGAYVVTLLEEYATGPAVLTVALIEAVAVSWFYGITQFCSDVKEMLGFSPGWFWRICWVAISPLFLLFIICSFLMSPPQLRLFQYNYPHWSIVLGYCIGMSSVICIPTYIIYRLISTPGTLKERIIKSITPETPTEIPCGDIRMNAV
# Test: Radioligand binding assay for SERT, displacement of [3H]1
# Settings: Table 3; selectivity ratio
compound,measurement,value
"CCCN(C)CCCC1(c2ccc(F)cc2)OCc2cc(C#N)ccc21 (racemic) [Compound 40, 1-(4-Fluorophenyl)-1-(3-(methyl(propyl)amino)propyl)-1,3-dihydroisobenzofuran-5-carbonitrile]",Ki(NET)/Ki (SERT),>100

# Source: paper PMC3894853 (2013)
